Assay results: PubChem BioAssay AID720542 (National Center for Advancing Translational Sciences (NCATS), 2013)
This is a selection; strong and weak results do not stand in their true shares. Active and inactive are the calls of the source. The call rests on the fitted dose curve; in most records, active means well fitted inhibition curve with a large enough effect; inconclusive means small, poorly fitted or top-dose-only effect; inactive means no such curve, though single readings can be large or run the other way.

Test system: Plasmodium falciparum AMA1 (3D7) - RON2 peptide interaction
Assay: qHTS for Inhibitors of AMA1-RON; Towards Development of Antimalarial Drug Lead: Primary Screen;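 further: 0% = vehicle wells and -100% = peptide control; nearly all actives have a fitted effect of over 45% in size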
Conditions: AlphaScreen AMA1-biotinylated RON2 peptide binding; at 58.2 µM (top of the series)

| Structure (SMILES) | activity change, negative = inhibition |
| --- | --- |
| CCC(=O)N(c1ccccc1)C1(COC)CCN(CCn2nnn(CC)c2=O)CC1 | inactive: -0.502% |
| CCC(=O)N(c1ccccc1)C1(COC)CCN(CCc2cccs2)CC1 | inactive: 33.9% |
